Results: article PMC8319832, “Fine-Tuning of Alkaline Residues on the Hydrophilic Face Provides a Non-toxic Cationic α-Helical Antimicrobial Peptide Against Antibiotic-Resistant ESKAPE Pathogens” (Frontiers in Microbiology, 2021)

Assays:
Test in all cases: MIC, broth dilution
Settings in all cases: CLSI broth dilution, MHB, 37°C, 20 h, OD630, at least three repeats; standard strain
S. aureus ATCC 25923 = assay type: cell-based, Staphylococcus aureus
Source text: (§1) All experiments were repeated at least three times.

E. faecalis ATCC 29212 = assay type: cell-based
Protocol: as §1
(§2) To study the influence of physiological ions on the antimicrobial activities of the peptides, The MICs of the peptides were also determined against the standard bacterial strains cultured in MHB containing various salts at their physiological concentrations (150 mM NaCl, 4.5 mM KCl, 1 mM MgCl2, 2 mM CaCl2, 6 μM NH4HCO3, and 4 μM FeCl3) ([Ma et al., 2016]).

P. aeruginosa ATCC 27853 = assay type: cell-based, Pseudomonas aeruginosa
Protocol: as §1, §2

## CC[C@H](C)[C@H](NC(=O)CN)C(=O)NCC(=O)N[C@@H](C)C(=O)N[C@H](C(=O)N[C@@H](CC(C)C)C(=O)N[C@@H](CCCCN)C(=O)N[C@H](C(=O)N[C@@H](CC(C)C)C(=O)N[C@H](C(=O)N[C@H](C(=O)NCC(=O)N[C@@H](CC(C)C)C(=O)N1CCC[C@H]1C(=O)N[C@@H](C)C(=O)N[C@@H](CC(C)C)C(=O)N[C@H](C(=O)N[C@@H](CO)C(=O)N[C@@H](Cc1c[nH]c2ccccc12)C(=O)N[C@H](C(=O)N[C@@H](CCCCN)C(=O)N[C@@H](CCCNC(=N)N)C(=O)N[C@@H](CCCCN)C(=O)N[C@@H](CCCNC(=N)N)C(=O)N[C@@H](CCC(N)=O)C(=O)N[C@@H](CCC(N)=O)C(N)=O)[C@@H](C)CC)[C@@H](C)CC)[C@@H](C)O)[C@@H](C)O)C(C)C)C(C)C [Melittin]
S. aureus ATCC 25923
  MIC: 5 µg/mL (≈ 1.76 µM)
E. faecalis ATCC 29212
  MIC: 2.5 µg/mL (≈ 0.878 µM)
P. aeruginosa ATCC 27853
  MIC: 5 µg/mL (≈ 1.76 µM)

Converted amounts (≈) assume the structure as drawn.
